Reference: US20240408094A1, “INHIBITION OF USP7 INDUCES P53-INDEPENDENT TUMOR GROWTH SUPPRESSION IN TRIPLE-NEGATIVE BREAST CANCERS BY DESTABILIZING FOXM1” (The Trustees of Columbia University in the City of New York, priority 2023, published 2024)

Columns and labels:
MDA-MB-468 xenografts = assay: MDA-MB-468 xenograft mouse model; conditions: 37.5 mg/kg intraperitoneally
Procedure: Given the high expression of FOXM1 in triple-negative breast cancer, the effects of the USP7 degrader PU7-1 were next investigated in TNBC cells. First, three TNBC cell lines MDA-MB-468, MDA-MB-231 and BT549 were treated with 10 μM of PU7-1 for 96 h. The protein levels of FOXM1 were determined by Western blot. […] Next, the effects of PU7-1 were examined on TNBC cell proliferation. MDA-MB468 and BT549 were incubated in the complete growth medium with or without 10 μM of PU7-1 for two weeks. Colonies were stained by crystal violet dye that stains nucleic acids and proteins and is used to reflect the cell number. […] Furthermore, the dye bound to the cells was solubilized with 30% acetic acid and measured by the absorbance at 600 nm. The viability of PU7-1-treated cells is about 20% of the control cells in MDA-MB-468 or 30% of the control cells in BT549 (FIG. 5C). […] The IC50 of PU7-1 in TNBC cells were then determined using a luminescent cell viability assay. […] Lastly, the xenograft mouse model was utilized to investigate the in vivo efficacy of PU7-1 in TNBC. Two million of MDA-MB-468 cells were subcutaneously inoculated into 6-8-week female nude mice. PU7-1 was intraperitoneally administrated at the dosage of 37.5 mg/kg daily for 3 weeks, 6 days per week (FIG. 5E). At the endpoint, tumors were dissected, weighed, and photographed. […]

[1] = tested on: FOXM1 downstream target genes; assay: RNAseq and quantitative real-time PCR of FOXM1 target genes in CAL33; format: cell-based, human; conditions: CAL33, 10 μM, 96 h
Procedure: (§1) FIGS. 4F and 4G show CAL33 cells treated with or without 10 μM of PU7-1 for 96 h. Total RNA was extracted and subjected to RNAseq analysis. Differentially expressed genes were further analyzed. Heatmap in FIG. 4G represents the downregulation of known FOXM1 target genes.
Transcription factor FOXM1 is a master regulator of the cell cycle. It tightly controls the cell cycle progression and maintains sustained cell proliferation via its various downstream target genes crucial for cell cycle regulation 16. To explore the functional consequences of PU7-1-mediated FOXM1 degradation, a transcriptome analysis was performed. CAL33 cells were treated with or without 10 μM of PU7-1 for 96 h and total RNA were extracted for RNAseq analysis. We identified ˜5000 differentially expressed genes (DEGs) in DMSO-treated versus PU7-1-treated cells (FIG. 22). […] This effect was further validated in CAL33 cells by quantitative real-time PCR (FIG. 4H).

p53 pathway = assay: USP7 levels and p53 pathway (p53, p21) immunoblots in cancer cells harboring wild-type p53; format: cell-based; conditions: human cancer cells harboring wild-type p53, 10 μM, 72 h
Procedure: FIG. 11A show human cancer cells harboring wildtype p53 treated with or without 10 μM of PU7-1 for 72 h. The protein levels of p53 and its target p21 were detected by immunoblotting.
To specifically degrade USP7, a set of 66 PROTAC compounds were designed and synthesized that contain an USP7 specific binding moiety XL177A and an E3 ubiquitin ligase (CRBN or VHL) binding moiety connected by different linkers. All putative USP7 PROTACs were used to treat CAL33 cells that express high levels of USP7 protein, and then the USP7 protein levels were determined by western blot (FIGS. 10A and 10B). Through initial screening, PU7-1 was identified as a potential USP7 degrader (FIG. 3A and FIG. 10). […] The effect of PU7-1 was also tested in several human cancer cells harboring wild-type p53. […] In addition, to exclude the possibility that PU7-1 affects the USP7 protein levels by regulating its transcription, a quantitative real-time PCR was performed in CAL33 treated with PU7-1 for 72 h. […] In addition, the half-life of USP7 protein was examined in CAL33 cells in the presence or absence of PU7-1 treatment. […]
Cells were lysed in FLAG lysis buffer (50 mM Tris-HCl (pH 7.3), 137 mM NaCl, 10 mM NaF, 0.5 mM EDTA, 1% Triton X-100, 0.2% Sarkosyl, 10% glycerol) freshly supplemented with protease inhibitor cocktail. Protein concentration was determined by the Bio-Rad protein assay. […]

FOXM1 = FOXM1 protein levels by immunoblot in CAL33 cells; format: cell-based, human; conditions: dose- and time-dependent
Procedure: as §1
Cells were lysed in FLAG lysis buffer (50 mM Tris-HCl (pH 7.3), 137 mM NaCl, 10 mM NaF, 0.5 mM EDTA, 1% Triton X-100, 0.2% Sarkosyl, 10% glycerol) freshly supplemented with protease inhibitor cocktail. Protein concentration was determined by the Bio-Rad protein assay. Whole cell extracts were then resolved by Novex Tris-Glycine gel (Thermo Scientific) and transferred to a Nitrocellulose membrane (Millipore). Membranes were blocked with 5% (w/v) nonfat milk in Tris-buffered saline with Tween-20 (TBST), incubated with primary antibodies, then secondary HRP-conjugated antibodies (Jackson ImmunoResearch, 1:10000 dilution) and detected on autoradiographic films after incubating with ECL (Thermo Scientific, #32106). Primary antibodies used in this study include anti-USP7 (Cell Signaling, #4833), anti-CRBN (Cell Signaling, #71810); anti-P53 (SantaCruz Biotechnology, sc-126), anti-PUMA (Santa Cruz Biotechnology Cat #sc-28226); anti-p21 (Santa Cruz Biotechnology Cat #sc-53870); anti-FOXM1 (Cell Signaling, #5436); anti-Actin (Sigma-Aldrich Cat #A5441); anti-vinculin (Sigma-Aldrich Cat #V9131).

O=C1CCC(N2Cc3c(CCCCCN4CCN(CCC(=O)Nc5ccc6c(=O)n(CC7(O)CCN(C(=O)C(CCCNC(=O)c8ccc9c(Cl)c%10c(nc9c8)CCCC%10)Cc8ccccc8)CC7)cnc6c5)CC4)cccc3C2=O)C(=O)N1 (stereo not shown)
USP7, FOXM1 and Ki67 in tumor sections (immunohistochemistry) (MDA-MB-468 xenografts): dramatically lower levels
FOXM1 downstream target genes expression [1]: significantly downregulated
USP7 protein levels and p53 pathway (p53 pathway): effectively reduced USP7 protein levels and activated p53 pathway
FOXM1 protein levels (FOXM1): significantly decreased
